Test results: patent US7166588B2 (priority 2000, dated 2007)

The chains behind the UniProt entries cited, without tags or fusion partners. Residues count along the entry.
UniProt P06276, 29-602: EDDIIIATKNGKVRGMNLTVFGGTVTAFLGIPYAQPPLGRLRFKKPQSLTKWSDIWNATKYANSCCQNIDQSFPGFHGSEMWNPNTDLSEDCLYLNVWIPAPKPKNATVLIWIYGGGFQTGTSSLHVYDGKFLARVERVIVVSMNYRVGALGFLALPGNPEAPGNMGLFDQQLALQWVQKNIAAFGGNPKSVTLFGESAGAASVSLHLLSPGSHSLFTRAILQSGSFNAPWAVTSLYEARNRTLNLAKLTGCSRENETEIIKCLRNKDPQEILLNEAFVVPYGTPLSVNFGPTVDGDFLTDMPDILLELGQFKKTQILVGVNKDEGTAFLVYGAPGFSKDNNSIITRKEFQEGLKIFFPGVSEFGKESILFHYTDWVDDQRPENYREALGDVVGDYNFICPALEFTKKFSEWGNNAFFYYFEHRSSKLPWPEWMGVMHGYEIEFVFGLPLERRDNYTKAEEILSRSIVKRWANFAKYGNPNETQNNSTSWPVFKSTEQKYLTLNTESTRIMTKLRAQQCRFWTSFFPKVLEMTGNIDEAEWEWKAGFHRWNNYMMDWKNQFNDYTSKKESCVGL

What follows are compounds tested against butyrylcholinesterase (BChE), human recombinant (Homo sapiens, UniProt P06276) (assay: biochemical).

SMILES	IC50
COc1ccc2c3c1O[C@@H]1C[C@H](O)C=CC31CCN(C(=O)NC(C)C)C2 (stereo partly drawn) [SPH-1269]	10 µM
COc1ccc2c3c1OC1CC(O)C=CC31CCN(CCC(=O)OC(C)(C)C)C2 (stereo not drawn) [SPH-1277]	7.3 µM
COc1ccc2c3c1O[C@H]1CC(O)C=CC31CCN(C(=O)NC(C)(C)C)C2 (stereo partly drawn) [SPH-1283]	100 µM
COc1ccc2c3c1O[C@@H]1CC(O)C=CC31CCN(C)C2C#N (stereo partly drawn) [SPH-1290]	100 µM
COc1ccc2c3c1O[C@@H]1CC(O)C=CC31CCN(C(=O)OCC1c3ccccc3-c3ccccc31)C2 (stereo partly drawn) [SPH-1292]	100 µM
COc1ccc2c3c1OC1CC(O)C=CC31CCN(CCN1CC3CC1CN3c1ccccc1)C2 (stereo not drawn) [SPH-1329]	0.85 µM
